Source: US20060094649A1, “Hla-a1,-a2,-a3,-a24,-b7, and-b44 tumor associated antigen peptides and compositions” (priority 2002, published 2006)
Where two headings read alike, the source gives them in different places.

Assays:
[1] = system: HLA-B44 supertype molecules; experiment: HLA-B44 supertype cross-binding; parameters: species or system human; settings: number of the six B44 supertype alleles bound
HLA-B*4501 = HLA-B*4501 (Homo sapiens, UniProt P01889, A329T/A65T/A93T/A95T/C349S/D138N/D201E/D98Y/E176V/E187L/E204Q/E69K/H137Y/K202T/L119W/N87E/Q56L/Q94N/R155S/R180D/S121R/S35A/S48T/V127L/V306I/V36M/W191S/Y140L/Y33H/Y91S); experiment: Class I peptide-binding assay, HLA-B*4501 (B44 supertype); settings: CEA-derived B44 peptides; read-out: B*4501
HLA-B*4403 = HLA-B*4403 (Homo sapiens, UniProt P01889, A223V/A65T/A93T/A95T/D201E/D98Y/E176V/E187L/E204Q/E69K/G107R/H137Y/K202T/L105A/L119I/N104T/N87E/Q56L/Q94N/R106L/R155S/R180L/S101N/S121R/S35A/S48T/T118I/V36M/W191S/Y140D/Y91S); experiment: Class I peptide-binding assay, HLA-B*4403 (B44 supertype); settings: CEA-derived B44 peptides; read-out: B*4403
HLA-B*1801 = HLA-B*1801 (Homo sapiens, UniProt P01889, A329T/A93T/A95T/C349S/D201E/D54G/D98Y/E176V/E187T/E204Q/E69T/K202T/Q94N/R155S/R180L/S121R/V306I/Y140S/Y195H/Y33H/Y91S); experiment: Class I peptide-binding assay, HLA-B*1801 (B44 supertype); settings: CEA-derived B44 peptides; read-out: B*1801
HLA-B*4002 = HLA-B*4002 (Homo sapiens, UniProt P01889, A65T/A93T/A95T/D138N/D201E/D98Y/E176V/E204Q/E69K/K202T/N87E/Q56L/Q94N/R180L/S48T/Y33H/Y91S); experiment: Class I peptide-binding assay, HLA-B*4002 (B44 supertype); settings: CEA-derived B44 peptides; read-out: B*4002
HLA-B*4402 = HLA-B*4402 (Homo sapiens, UniProt P01889, A223V/A65T/A93T/A95T/D201E/D98Y/E176V/E187L/E204Q/E69K/G107R/H137Y/K202T/L105A/L119I/N104T/N87E/Q56L/Q94N/R106L/R155S/R180D/S101N/S121R/S35A/S48T/T118I/V36M/W191S/Y140D/Y91S); experiment: Class I peptide-binding assay, HLA-B*4402 (B44 supertype); settings: CEA-derived B44 peptides; read-out: B*4402
HLA-B*4001 = HLA-B*4001 (Homo sapiens, UniProt P01889, A65T/A93T/A95T/D138N/D98Y/E176V/E69K/N87E/Q56L/Q94N/R180L/S121R/S35A/S48T/T167S/V36M/W171L/Y33H/Y91S); experiment: Class I peptide-binding assay, HLA-B*4001 (B44 supertype); settings: CEA-derived B44 peptides; read-out: B*4001
HLA-A*6801 = HLA-A*6801 (Homo sapiens, UniProt P04439, A269V/D185E/E176V/E277Q/E87N/F33Y/G231S/I121M/I166T/I218V/L180W/L300P/L318F/N151K/P208A/P217A/Q86R/R169H/T345S); experiment: Class I peptide-binding assay, HLA-A*6801
[2] = system: HLA-A3 supertype molecules; experiment: HLA-A3 supertype cross-binding (A*0301, A*1101, A*3101, A*3301, A*6801)
HLA-A*1101 = HLA-A*1101 (Homo sapiens, UniProt P04439, A114D/D185E/E176A/F33Y/L180Q/S129P/T187R); experiment: Class I peptide-binding assay, HLA-A*1101
HLA-A*0301 = HLA-A*0301 (Homo sapiens, UniProt P04439); experiment: Class I peptide-binding assay, HLA-A*0301

CC(C)C[C@H](NC(=O)[C@H](Cc1ccc(O)cc1)NC(=O)[C@@H](NC(=O)[C@H](C)NC(=O)[C@H](CC(=O)O)NC(=O)[C@H](CCC(N)=O)NC(=O)[C@@H](NC(=O)[C@H](CCC(=O)O)NC(=O)[C@@H]1CCCN1C(=O)[C@H](CCC(=O)O)NC(=O)[C@@H](N)CS)[C@@H](C)O)[C@@H](C)O)C(=O)O
Degeneracy [1]: 2
IC50 (HLA-B*4501): > 10000 nM
IC50 (HLA-B*4403): 807 nM
IC50 (HLA-B*1801): 831 nM
IC50 (HLA-B*4002): 3390 nM
IC50 (HLA-B*4402): 398 nM
IC50 (HLA-B*4001): 311 nM

CC[C@H](C)[C@H](NC(=O)[C@@H](NC(=O)[C@@H]1CCCN1C(=O)[C@H](Cc1ccccc1)NC(=O)[C@@H](NC(=O)[C@@H](N)Cc1ccc(O)cc1)C(C)C)C(C)C)C(=O)N[C@@H](Cc1ccccc1)C(=O)N[C@@H](CO)C(=O)N[C@@H](CCCCN)C(=O)O
IC50 (HLA-A*6801; Table 20, TAA A3 supertype candidates, read-out: A*6801 binding affinity): 1.7 nM
No. A3 supertype alleles crossbound (200) ([2]; Table 20, binding affinity threshold of 200 nM or less): 3

CC(C)C[C@H](NC(=O)[C@H](CC(C)C)NC(=O)[C@@H](NC(=O)[C@H](CC(C)C)NC(=O)[C@@H](NC(=O)[C@@H](N)CCCNC(=N)N)[C@@H](C)O)[C@@H](C)O)C(=O)N[C@@H](CO)C(=O)N[C@H](C(=O)N[C@H](C(=O)N[C@@H](CCCNC(=N)N)C(=O)O)[C@@H](C)O)C(C)C [CEA.376]
A*1101 binding affinity (in words) (HLA-A*1101): High

CC(C)C[C@H](NC(=O)[C@@H](NC(=O)[C@H](CC(C)C)NC(=O)[C@@H](NC(=O)[C@@H](N)CCCNC(=N)N)[C@@H](C)O)[C@@H](C)O)C(=O)N[C@@H](Cc1ccccc1)C(=O)N[C@@H](CC(N)=O)C(=O)N[C@H](C(=O)N[C@H](C(=O)N[C@@H](CCCNC(=N)N)C(=O)O)[C@@H](C)O)C(C)C [CEA.554]
A*1101 binding affinity (in words) (HLA-A*1101): High

CC[C@H](C)[C@H](NC(=O)[C@@H](NC(=O)[C@@H]1CCCN1C(=O)[C@H](Cc1ccccc1)NC(=O)[C@@H](NC(=O)[C@@H](N)Cc1ccc(O)cc1)C(C)C)C(C)C)C(=O)N[C@@H](Cc1ccccc1)C(=O)N[C@@H](CO)C(=O)N[C@@H](CCCCN)C(=O)O [compound 99]
IC50 (HLA-A*6801; Table 16c, Mage2/3-derived, read-out: HLA Binding (IC50 nM) A*6801): 1.7 nM
Number of A3 alleles crossbound ([2]; Table 16c, Mage2/3-derived): 3

CC[C@H](C)[C@H](NC(=O)[C@@H](NC(=O)[C@@H]1CCCN1C(=O)[C@H](Cc1ccccc1)NC(=O)[C@@H](NC(=O)[C@@H](N)Cc1ccc(O)cc1)C(C)C)C(C)C)C(=O)N[C@@H](Cc1ccccc1)C(=O)N[C@@H](CO)C(=O)N[C@@H](CCCNC(=N)N)C(=O)O [compound 100]
IC50 (HLA-A*0301): 36 nM
IC50 (HLA-A*1101; read-out: HLA Binding (IC50 nM) A*1101, Table 16c, Mage2/3-derived): 2.6 nM
